Biological target: T1, recombinant human TSPO (Homo sapiens, UniProt P30536)
T1 construct: purchased Origene Technologies, Inc. TP320107
Assay: Surface plasmon resonance (SPR) binding affinity
Details: mean ± SD of three measurements
Experimental: To determine the binding affinities of the selected compounds, the KD values were measured by using Biacore T200 optical biosensor system (GE Healthcare). The recombinant human TSPO (18 kDa, Origene Technologies, Inc., No.: TP320107) was covalently immobilised on a CM5 chip (GE Healthcare) at 25 °C via standard amine-coupling protocols in 10 mM sodium acetate (pH 4.5) at a flow rate of 10 µL/min for 1500s (immobilised protein densities: 5,000–6,000 response unit (RU)). The tested compounds were initially prepared at 10 mM in DMSO, and serially diluted in PBS-P buffer (10 mM NaH2PO4, 150 mM NaCl, pH 7.4) to 1% DMSO. For each tested compound, the kinetic values were measured using a five-point concentration series, 0.001, 0.01, 0.5, 1, and 5 µM. Multiple blank samples of running buffer alone (0 µM of tested compounds) were incorporated in every measurement. The filtered PBS-P buffer containing 1% DMSO was used as a running buffer during the SPR experiments. […] The KD value of each compound was calculated by Biacore T200 evaluation software (GE Healthcare) after the standard solvent correction process.

Protein sequences, listed by entry. Tags and fused reporters are not part of them.
UniProt P30536, whole entry: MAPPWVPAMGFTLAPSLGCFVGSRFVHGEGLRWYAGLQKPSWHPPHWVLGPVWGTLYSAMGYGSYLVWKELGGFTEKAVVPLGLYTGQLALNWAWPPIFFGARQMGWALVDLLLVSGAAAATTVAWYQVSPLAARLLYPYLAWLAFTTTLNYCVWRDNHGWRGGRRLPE

CCC(C)N(C)C(=O)c1cc2ccccc2c(-c2ccccc2Cl)n1 (stereo not shown) [Compound 6, N-(sec-butyl)-1–(2-chlorophenyl)-N-methylisoquinoline-3-carboxamide, reference compound]
Kd: 1.1 ± 0.45 nM
